Patent publication US20100137206A1, “NOVEL LIGAND GUIDED BLOCK COPOLYMERS FOR TARGETED DRUG DELIVERY” (priority 2006, published 2010)

Assays:
[1] = Average diameter and size distribution of micelles by dynamic light scattering; assay type: physicochemical; conditions: Empty micelles
Description: Micellization was achieved by dissolving each block copolymer (20 mg) in acetone (0.8 mL) and drop-wise addition (˜1 drop/15 sec) of polymer solution to doubly distilled water (5 mL) under moderate stirring at 25° C., followed by evaporation of acetone under vacuum. Average diameter and size distribution of prepared micelles were estimated by dynamic light scattering (DLS) using Malvern Zetasizer 3000 at a polymer concentration of 4 mg/mL.
Polymeric micelles containing physically loaded DOX were prepared by co-solvent evaporation method. In brief, 10 mg of acetal-PEO-b-PCL, acetal-PEO-b-PCBCL, acetal-PEO-b-PCCL, GRGDS-PEO-b-PCL GRGDS-PEO-b-PBCL or GRGDS-PEO-b-PCCL and 2 mg of free DOX were dissolved in acetone (2 mL) in a glass vial followed by addition of 3.0 equivalent of triethylamine (TEA). This solution was added dropwise to pure water (6 mL) under moderate stirring at 25° C. The micellar solution was left stirring overnight, allowing evaporation of acetone. […] DOX-loaded micellar solution was then dialyzed against a large quantity of water for 8 h using a pre-swollen semi-permeable membrane (Spectra/Pro 6, molecular weight cut-off 3000, SECTRUM, Houston, USA) to remove free DOX. The concentration of loaded DOX was quantified photometrically at 485 nm after redissolving the freeze-dried sample in a DMSO-CHCl3 mixture (1:1, v/v).

[2] = Stability of the micellar solution in water (appreciable aggregation or precipitation); conditions: Empty micelles

For “doxorubicin-conjugated acetal polyethylene oxide)-block-poly(caprolactone) [Acetal-PEO-b-PCL(DOX)]”, the “Average diameter (nm)” value [1] was 90.4 nm, the Polydispersity [1] was 0.34 and the Stability [2] was greater than 1 month.
